Experiments:
[1] = system: LNCaP cells; assay: LNCaP proliferation assay (CellTiter-Glo); details: read-out: LNCaP EC50; Table 1, cell viability after 168 h
[2] = molecular target: USP7 (Homo sapiens (Human), UniProt Q93009); assay: USP7 fluorescence polarisation (FP) biochemical assay, ubiquitin-Lys-TAMRA substrate; details: read-out: USP7 IC50; Table 1, R9a = H versus R9a = Cl

The chains behind the UniProt entries cited, without tags or fusion partners.
UniProt Q93009, whole entry: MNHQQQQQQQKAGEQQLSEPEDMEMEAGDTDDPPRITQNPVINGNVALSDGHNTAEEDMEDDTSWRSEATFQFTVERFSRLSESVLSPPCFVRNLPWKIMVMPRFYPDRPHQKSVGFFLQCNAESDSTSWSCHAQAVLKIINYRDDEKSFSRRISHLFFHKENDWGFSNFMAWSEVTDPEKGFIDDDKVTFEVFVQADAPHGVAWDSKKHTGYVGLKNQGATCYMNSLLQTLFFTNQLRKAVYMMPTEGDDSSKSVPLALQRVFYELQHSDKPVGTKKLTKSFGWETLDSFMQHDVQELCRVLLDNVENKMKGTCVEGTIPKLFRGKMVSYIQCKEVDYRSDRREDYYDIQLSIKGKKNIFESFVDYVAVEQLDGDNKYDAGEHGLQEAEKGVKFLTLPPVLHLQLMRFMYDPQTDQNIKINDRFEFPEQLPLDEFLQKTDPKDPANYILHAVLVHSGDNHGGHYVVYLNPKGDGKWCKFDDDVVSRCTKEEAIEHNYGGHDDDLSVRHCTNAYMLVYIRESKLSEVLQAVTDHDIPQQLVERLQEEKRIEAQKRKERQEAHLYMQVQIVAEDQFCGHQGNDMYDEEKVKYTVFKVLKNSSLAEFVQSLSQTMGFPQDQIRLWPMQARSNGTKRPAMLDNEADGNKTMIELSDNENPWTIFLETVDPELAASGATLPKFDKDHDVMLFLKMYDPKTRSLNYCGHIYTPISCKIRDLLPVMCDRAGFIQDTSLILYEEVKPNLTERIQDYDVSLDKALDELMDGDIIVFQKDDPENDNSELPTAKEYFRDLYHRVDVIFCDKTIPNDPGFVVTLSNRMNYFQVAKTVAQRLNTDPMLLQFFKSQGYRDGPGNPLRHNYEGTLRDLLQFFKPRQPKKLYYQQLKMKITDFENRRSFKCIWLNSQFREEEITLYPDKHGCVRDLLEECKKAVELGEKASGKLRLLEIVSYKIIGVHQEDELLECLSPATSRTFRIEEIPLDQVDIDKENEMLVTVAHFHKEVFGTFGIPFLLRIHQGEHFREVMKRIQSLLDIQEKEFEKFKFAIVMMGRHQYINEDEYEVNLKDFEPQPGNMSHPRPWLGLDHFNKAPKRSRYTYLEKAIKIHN

Structure (SMILES) | EC50 [1] [µM] | IC50 [2] [µM]
CC1(C(=O)N2CCC(O)(Cn3cnc4c(ccn4-c4ccc(Cl)cc4)c3=O)CC2)CC1 | 0.049 | 0.39
CC1(C(=O)N2CCC(O)(Cn3cnc4c(ccn4-c4ccc5c(c4)OCO5)c3=O)CC2)CC1 | 0.14 | 0.42
Cn1cc(-c2cccc(-n3ccc4c(=O)n(CC5(O)CCN(C(=O)C6(C)CC6)CC5)cnc43)c2)cn1 | 0.13 | 0.33

Reference: patent US10766903B2 (ALMAC DISCOVERY LIMITED, priority 2016, dated 2020)
